Source: PubChem BioAssay AID1920062 (Sanford-Burnham Center for Chemical Genomics, 2024)
Only a part is listed here, and it is no random draw. Activity calls are given as the source filed them.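 How the source made its calls: active means activation at 10 µM reaching about 35% in either raw or pattern-adjusted values (limit read from the data); inactive means the rest.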

Chains of the proteins cited; added tags and fusions are not shown.
UniProt P20594, whole entry: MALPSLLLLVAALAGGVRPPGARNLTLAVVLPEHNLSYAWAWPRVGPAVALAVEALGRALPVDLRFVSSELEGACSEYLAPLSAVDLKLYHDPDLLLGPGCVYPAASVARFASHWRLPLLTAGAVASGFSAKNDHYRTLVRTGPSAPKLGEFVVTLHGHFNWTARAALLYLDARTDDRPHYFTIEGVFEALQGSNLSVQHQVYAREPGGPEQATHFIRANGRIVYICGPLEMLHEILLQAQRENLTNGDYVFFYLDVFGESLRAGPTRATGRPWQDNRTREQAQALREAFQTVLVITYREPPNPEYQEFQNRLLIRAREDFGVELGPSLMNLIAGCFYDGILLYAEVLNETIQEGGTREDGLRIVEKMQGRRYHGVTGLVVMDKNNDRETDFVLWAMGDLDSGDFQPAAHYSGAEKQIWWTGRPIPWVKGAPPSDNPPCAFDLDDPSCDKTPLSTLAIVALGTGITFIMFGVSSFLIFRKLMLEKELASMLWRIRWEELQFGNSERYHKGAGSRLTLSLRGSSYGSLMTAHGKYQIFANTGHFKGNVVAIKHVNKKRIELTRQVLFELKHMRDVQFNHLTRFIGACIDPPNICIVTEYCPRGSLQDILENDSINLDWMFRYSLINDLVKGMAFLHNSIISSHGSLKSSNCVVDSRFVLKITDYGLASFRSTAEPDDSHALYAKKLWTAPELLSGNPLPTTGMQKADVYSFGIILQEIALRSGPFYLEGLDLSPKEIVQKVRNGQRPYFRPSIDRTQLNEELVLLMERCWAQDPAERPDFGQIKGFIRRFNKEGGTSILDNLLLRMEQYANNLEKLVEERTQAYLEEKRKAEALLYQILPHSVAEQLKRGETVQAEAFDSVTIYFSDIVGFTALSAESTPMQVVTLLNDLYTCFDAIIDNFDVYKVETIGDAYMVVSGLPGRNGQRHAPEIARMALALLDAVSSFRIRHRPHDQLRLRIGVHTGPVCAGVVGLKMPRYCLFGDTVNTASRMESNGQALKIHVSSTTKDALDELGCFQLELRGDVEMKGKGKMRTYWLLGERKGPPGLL

target: Atrial natriuretic peptide receptor 2 (Homo sapiens) (UniProt P20594); assay: human GC-B receptor activators, primary screen, HEK293 GC-B cells, cGMP TR-FRET, EC30 CNP (AID 1920062); conditions: at 10 µM, stronger effect = higher value, 0% at EC30 CNP, 100% saturating CNP

For CCC(=O)N(c1ccccc1)C1(COC)CCN(CCc2cccs2)CC1, which activation is on record?
Its activation is inactive: 0.17%.

CCC(=O)N(c1ccccc1)C1(COC)CCN(CCn2nnn(CC)c2=O)CC1 was tested. Which activation did it give?
The activation was inactive: 2.22%.
